# Apparent affinities of Ab-95 variants for a coronavirus HR2 peptide

Values reported by Engelhart et al. 2022, doi:10.1038/s41597-022-01779-4 (FLAb copy).

The target is the same throughout: PDVDLGDISGINAS, from the HR2 region of SARS-CoV-2 spike.

Parent: Ab-95, a human scFv built as VH, three GGGGS repeats, VL. Only the CDRs of the light chain vary.
VH: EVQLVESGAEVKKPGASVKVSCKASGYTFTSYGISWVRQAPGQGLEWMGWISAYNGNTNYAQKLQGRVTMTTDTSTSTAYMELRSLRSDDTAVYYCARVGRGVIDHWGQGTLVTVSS
VL: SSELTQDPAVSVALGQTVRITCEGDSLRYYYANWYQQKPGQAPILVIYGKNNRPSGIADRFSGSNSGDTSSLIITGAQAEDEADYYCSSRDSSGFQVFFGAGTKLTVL

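Phage display of a naive human antibody library on the peptide gave the parent. Variants in AAYL52 differ from the parent at up to three CDR positions; double and triple changes were sampled at random. The scFvs were displayed on barcoded MATa yeast, the peptide on MATalpha yeast. Binding brings cells together so that they mate, and sequencing counts the barcode pairs among the diploids. Read counts were normalised to the haploid input and turned into Kd by a linear fit to BCL2-family pairs of known affinity, for each replicate. Mating was done three times.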

Positions count from residue 1 of the parent VL; Y31F puts F in place of Y. Scale: log10 of Kd in nM, estimated from mating counts; low values are strong binders. "ND" means that the variant was in the library but no mating with the target was seen in that replicate; the authors take this as a sign of poor binding, and no number exists.

changes,log10 Kd (nM) by replicate,empty controls
Y31F R53P Q96R,4.10 / 5.56 / 3.74,2/9 (4.05)
E23K R53M F98L,2.62 / 2.52 / 1.81,1/9 (2.31)
L27G Y31M V97G,ND / ND / ND,3/9 (3.13)
N51P S55I,3.77 / 5.18 / 3.99,4/9 (4.11)
G49I R53N S93W,5.55 / 5.99 / ND,3/9 (4.64)
R53G D91M,ND / ND / ND,1/9 (2.87)
A32T R53C S88W,ND / ND / ND,4/9 (4.49)
S26H R28D Y30E,2.23 / 1.87 / 1.57,5/9 (4.58)
G49H S55G S88R,5.20 / 4.24 / ND,3/9 (4.14)
Y30A R90V Q96T,1.70 / 1.28 / 1.05,3/9 (3.74)
E23Q D25V S88N,2.38 / 2.53 / 2.15,4/9 (4.99)
G49F S93L,5.09 / 3.62 / 3.91,2/9 (4.11)
K50N R53D S92I,4.42 / ND / ND,3/9 (4.88)
K50G S55K G94W,ND / ND / 2.89,4/9 (3.97)
S26W Y31G S89M,2.31 / 2.37 / 2.31,4/9 (3.80)
Y30F S89H F98K,ND / ND / ND,1/9 (4.10)
D25N Y30R N52T,1.65 / 1.56 / 0.99,6/9 (3.85)
Y30E Q96Y V97T,1.49 / 2.04 / 1.24,3/9 (4.82)
E23H S26E Y30S,1.32 / 1.29 / 0.54,1/9 (4.84)
L27R A32R F98V,3.39 / 2.94 / 4.28,1/9 (2.68)
S26N S92C Q96N,3.75 / ND / ND,2/9 (3.46)
G24C L27W A32S,ND / 3.70 / ND,0/9
E23S G49A,2.86 / 2.72 / 3.40,2/9 (4.20)
E23Y Y31W S55V,3.16 / 3.38 / 2.43,5/9 (3.80)
N51I V97K,ND / ND / ND,1/9 (3.80)
L27P S55V Q96I,ND / ND / ND,1/9 (4.03)
D25F A32P R90W,3.08 / 3.49 / 2.96,2/9 (3.94)
E23H F95N Q96S,2.39 / 2.48 / 2.45,4/9 (4.22)
L27S S92H F98W,3.82 / 5.47 / 3.35,6/9 (3.72)
E23W G49I,3.86 / 4.43 / ND,0/9
E23C R28L N33R,3.62 / 4.15 / 3.81,4/9 (3.97)
L27R P54Y,ND / ND / ND,0/9
G49M K50Q R53Q,ND / 3.94 / ND,1/9 (3.76)
Y29I F98Y,4.02 / 4.95 / ND,3/9 (3.67)
L27N G49W F98R,4.01 / 3.19 / 3.58,5/9 (4.15)
R53W R90L V97T,ND / ND / ND,1/9 (3.93)
P54W S55G F98M,2.94 / 3.17 / ND,5/9 (3.76)

The first 3 variants above that were never detected:

changes,log10 Kd (nM) by replicate,empty controls
L27G Y31M V97G,ND / ND / ND,3/9 (3.13)
R53G D91M,ND / ND / ND,1/9 (2.87)
A32T R53C S88W,ND / ND / ND,4/9 (4.49)

Three control strains display no target. For library AAYL52, 28% of the pairings with them gave a signal, with a median of 3.91 and one signal in twenty below 2.90, so weak values seen in few replicates may be background. Also given: how often the same scFv was detected with the empty control strains, with their mean in brackets.